This note sets out measurements from patent US9284317B2, “Substituted imidazo[1,2-a]pyrazines as MPS-1 inhibitors” (Bayer Intellectual Property GmbH, priority 2010, dated 2016).

The chains behind the UniProt entries cited, without tags or fusion partners. Where a name states a change or a piece, a line headed by the entry shows the natural chain unless it says otherwise.
UniProt P33981: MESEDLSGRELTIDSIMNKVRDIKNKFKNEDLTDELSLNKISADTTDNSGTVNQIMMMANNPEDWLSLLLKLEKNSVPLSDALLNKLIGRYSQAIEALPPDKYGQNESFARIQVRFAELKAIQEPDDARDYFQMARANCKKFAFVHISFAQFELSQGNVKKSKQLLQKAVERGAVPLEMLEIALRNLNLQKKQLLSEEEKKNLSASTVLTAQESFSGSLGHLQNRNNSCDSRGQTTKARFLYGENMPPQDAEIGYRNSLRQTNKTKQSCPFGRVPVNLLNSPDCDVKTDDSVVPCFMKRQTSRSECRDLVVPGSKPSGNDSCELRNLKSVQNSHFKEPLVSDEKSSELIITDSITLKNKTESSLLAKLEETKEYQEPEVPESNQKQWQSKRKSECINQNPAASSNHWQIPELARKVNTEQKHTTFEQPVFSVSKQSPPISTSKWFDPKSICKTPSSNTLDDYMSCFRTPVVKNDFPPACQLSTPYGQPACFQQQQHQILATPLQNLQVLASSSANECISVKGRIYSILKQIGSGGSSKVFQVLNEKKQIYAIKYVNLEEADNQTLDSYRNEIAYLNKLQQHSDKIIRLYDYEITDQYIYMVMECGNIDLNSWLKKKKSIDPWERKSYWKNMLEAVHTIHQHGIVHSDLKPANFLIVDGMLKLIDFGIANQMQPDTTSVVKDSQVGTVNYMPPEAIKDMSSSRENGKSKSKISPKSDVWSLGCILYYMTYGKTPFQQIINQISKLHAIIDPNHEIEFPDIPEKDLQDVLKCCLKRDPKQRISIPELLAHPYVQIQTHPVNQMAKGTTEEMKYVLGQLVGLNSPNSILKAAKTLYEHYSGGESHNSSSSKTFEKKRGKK

The experiment addresses human kinase Mps-1 (N-terminally GST-tagged human full length recombinant Mps-1 kinase) (Homo sapiens (Human), UniProt P33981). Briefly: Mps-1 Kinase Assay (TR-FRET). Type of experiment: biochemical. As to conditions: 10 μM ATP, 1 μM biotinylated peptide substrate, 60 min at 22° C., read-out: Mps1 IC50. The protocol:
The human kinase Mps-1 phosphorylates a biotinylated substrate peptide. Detection of the phosphorylated product is achieved by time-resolved fluorescence resonance energy transfer (TR-FRET) from Europium-labelled anti-phospho-Serine/Threonine antibody as donor to streptavidin labelled with cross-linked allophycocyanin (SA-XLent) as acceptor. Compounds are tested for their inhibition of the kinase activity.
N-terminally GST-tagged human full length recombinant Mps-1 kinase (purchased from Invitrogen, Karslruhe, Germany, cat. no PV4071) was used. As substrate for the kinase reaction a biotinylated peptide of the amino-acid sequence […] (C-terminus in amide form, purchased from Biosynthan GmbH, Berlin) was used.
The concentration of Mps-1 in the assay was adjusted to the activity of the enzyme lot and was chosen appropriate to have the assay in the linear range, typical enzyme concentrations were in the range of about 1 nM (final conc. in the 5 μl assay volume).
The resulting mixture was incubated 1 h at 22° C. to allow the binding of the phosphorylated peptide to the anti-phospho(Ser/Thr)-Europium-antibody. Subsequently the amount of phosphorylated substrate was evaluated by measurement of the resonance energy transfer from the Europium-labelled anti-phospho(Ser/Thr) antibody to the Streptavidin-XLent.

By IC50 is commonly meant the concentration that gives 50% inhibition. Take `CC(C)CNc1nc(-c2ccc([S+]([O-])C3CC3)cc2)cn2c(-c3ccc(C(=O)NC4CC4)cc3)cnc12` (racemic) [Example 3-1, (RS) N-cyclopropyl-4-{6-[4-(cyclopropylsulfinyl)phenyl]-8-(isobutylamino)imidazo[1,2-a]pyrazin-3-yl}benzamide]: the IC50 is 1 nM.
